# ChEMBL document CHEMBL5728828, “Substituted carboxamides as inhibitors of WDR5 protein-protein binding” (2021)
# Molecular target: WD repeat-containing protein 5 (Homo sapiens, UniProt P61964)
# Assay: Surface Plasmon Resonance (SPR) Assay: Exemplary compounds of the application were dissolved in 100% DMSO at 10 mM, assayed fresh, and then stored at −20° C. for repeat studies and other experiments. Full length WDR5 with an N-terminal His tag and C-terminal AviTag (Avidity Inc.) was expressed in E. coli with coexpression of BirA to biotin label the protein in vivo. Purification was via Ni-NTA. …
# Format: organism-based
smiles,measurement,value
CN1CCN(c2c(F)cc(-c3cc(CN4CCOCC4)ccc3F)cc2NC(=O)c2c[nH]c(=O)cc2C(F)(F)F)CC1,Kd,17 nM
